Earlier results, collected in patent EP0348490B1, “TREATMENT OF TYPE 2 DIABETES MELLITUS” (AMYLIN PHARMACEUTICALS, INC., priority 1988, dated 1995).

Test system: islet B-cells
Settings: cited from earlier work

For “CGRP: calcitonin gene related peptide, shown to be a potent inhibitor of glucose stimulated insulin secretion (ACDTATCVTHRLAGLLSRSGGVVKNNFVPTNVGSKAF; Calcitonin gene-related peptide 1; UniProt P06881 83-119, looked up)”, the “inhibition of glucose stimulated insulin secretion (literature)” value is given as “potent inhibitor”.
